Vapor pressure values, as collected for the OPERA models

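The OPERA project collected these measurements from public sources as training and test data for property models. One number stands for a compound and property, with no spread given. Method, purity and exact conditions of the single measurements are not given. The measured form (salt, isomer or mixture) is not always the one drawn. Unmarked limits or estimates from the upstream databases cannot be ruled out.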

Vapor pressure is log10 of mmHg; the set covers 15 to 30 °C, mostly 20 to 25 °C. The databases behind each value are named after "via".

Listed for NCCCCCCCCN [1,8-Octanediamine]: log vapor pressure -2.259 (log10 mmHg) (via eChemPortal). Clc1cccc(-c2c(Cl)c(Cl)c(Cl)c(Cl)c2Cl)c1Cl [2,2',3,3',4,5,6-Heptachlorobiphenyl] is reported with log vapor pressure -6.385 (log10 mmHg) (via OCHEM). CCCCC(CC)CN(CCC(=O)[O-])CCC(=O)O.[Na+] (stereo not drawn) is reported with log vapor pressure -4.655 (log10 mmHg) (via eChemPortal). Clc1cc(Cl)c(Oc2cc(Cl)c(Cl)c(Cl)c2Cl)c(Cl)c1 [2,2',3,4,4',5,6'-Heptachlorodiphenyl ether] has log vapor pressure -5.975 (log10 mmHg) (via OCHEM).

Listed for CNC(N)=O [Methylurea]: log vapor pressure -4.548 (log10 mmHg) (via eChemPortal). Listed for CCCCCCCCCC(C)(C)SSC(C)(C)CCCCCCCCC [Disulfide, di-tert-dodecyl]: log vapor pressure -5.791 (log10 mmHg) (via eChemPortal). Listed for CO[C@@H]1O[C@H](COS(=O)(=O)c2ccc(C)cc2)[C@H]2OC(C)(C)O[C@@H]12: log vapor pressure -2.001 (log10 mmHg) (via eChemPortal). The entry for CCCCCCC(C)Nc1ccc(Nc2ccccc2)cc1 (stereo not drawn) [N-(1-Methylheptyl)-N'-phenyl-1,4-benzenediamine] lists log vapor pressure -6.302 (log10 mmHg) (via OFMPub).

Sc1nnc(S)s1 [2,5-Dimercapto-1,3,4-thiadiazole] is reported with log vapor pressure -4.86 (log10 mmHg) (via eChemPortal). Cc1ncc[nH]1 [2-Methylimidazole] is reported with log vapor pressure -3.362 (log10 mmHg) (via eChemPortal). The entry for COC(=O)C(Cl)Cc1ccc(Cl)cc1 (stereo not drawn) [Chlorfenprop-methyl] lists log vapor pressure -2.156 (log10 mmHg) (via OCHEM). Listed for OC/C=C/CO [2-Butene-1,4-diol (trans)]: log vapor pressure -2.17 (log10 mmHg) (via OCHEM).

Cc1cc(C)nc(NS(=O)(=O)c2ccc(N)cc2)n1 [Sulfamethazine] has log vapor pressure -10.44 (log10 mmHg) (via OCHEM). For CC(C)OC(=O)C(F)(F)F [Isopropyl trifluoroacetate] the data give log vapor pressure 2.015 (log10 mmHg) (via eChemPortal). Listed for O=C=NCCCCCCN=C=O [1,6-Diisocyanatohexane]: log vapor pressure -2.28 (log10 mmHg) (via eChemPortal). Clc1cc(Cl)c(-c2c(Cl)c(Cl)c(Cl)c(Cl)c2Cl)c(Cl)c1Cl [2,2',3,3',4,4',5,6,6'-Nonachlorobiphenyl] is reported with log vapor pressure -6.015 (log10 mmHg) (via OCHEM).

The entry for Nc1ccccn1 [2-Aminopyridine] lists log vapor pressure -1.298 (log10 mmHg) (via eChemPortal). CC(C)(N=NC(C)(C)C(=N)N)C(=N)N.Cl.Cl [2,2'-Azobis(2-amidinopropane) dihydrochloride] has log vapor pressure -7.201 (log10 mmHg) (via eChemPortal). For O=C(O)c1ccc(O)cc1O [2,4-Dihydroxybenzoic acid] the data give log vapor pressure -7.175 (log10 mmHg) (via eChemPortal). The entry for CNc1ccc(Cc2ccc(NC)cc2)cc1 [Benzenamine, 4,4'-methylenebis[N-methyl-] lists log vapor pressure -4.754 (log10 mmHg) (via PubChem).

CC(=O)O.CCCCCCCCCCCCCCCC(=O)O.CCCCCCCCCCCCCCCCCC(=O)O.OCC1OC(OC2(CO)OC(CO)C(O)C2O)C(O)C(O)C1O (stereo not drawn) is reported with log vapor pressure -4.745 (log10 mmHg) (via eChemPortal). Listed for NC12CC3CC(CC(C3)C1)C2 [Amantadine]: log vapor pressure 0.958 (log10 mmHg) (via eChemPortal). Nc1c(S(=O)(=O)[O-])cc(Nc2cccc(S(=O)(=O)CCOS(=O)(=O)[O-])c2)c2c1C(=O)c1ccccc1C2=O.[Na+].[Na+] [Reactive Blue 19] is reported with log vapor pressure -6.663 (log10 mmHg) (via eChemPortal). Listed for CCC(C)(C)C1CCC(=O)CC1 [4-(tert-Pentyl)-cyclohexanone]: log vapor pressure -1.502 (log10 mmHg) (via eChemPortal).

CCNCCO [2-(Ethylamino)ethanol] is reported with log vapor pressure -0.371 (log10 mmHg) (via eChemPortal). The entry for CCOC(F)(F)C(F)(F)C(F)(F)C(F)(F)C(F)(F)F [1-Ethoxy-1,1,2,2,3,3,4,4,5,5,5-undecafluoropentane] lists log vapor pressure 1.571 (log10 mmHg) (via ICF). Clc1cc(-c2c(Cl)cccc2Cl)cc(Cl)c1Cl [2,3',4',5',6-Pentachlorobiphenyl] has log vapor pressure -4.854 (log10 mmHg) (via OCHEM). Clc1cc(Cl)cc(-c2ccccc2Cl)c1 [2,3',5'-Trichlorobiphenyl] is reported with log vapor pressure -3.565 (log10 mmHg) (via OCHEM).

Listed for Clc1cc(-c2c(Cl)c(Cl)cc(Cl)c2Cl)c(Cl)c(Cl)c1Cl [2,2',3,3',4,5,5',6'-Octachlorobiphenyl]: log vapor pressure -5.614 (log10 mmHg) (via OCHEM). For Cl.N[C@@H](Cc1cnc[nH]1)C(=O)O [L-Histidine hydrochloride] the data give log vapor pressure -10.23 (log10 mmHg) (via eChemPortal). C=CC(=O)OCCN(C)S(=O)(=O)C(F)(F)C(F)(F)C(F)(F)C(F)(F)C(F)(F)C(F)(F)C(F)(F)C(F)(F)F [N-Methylperfluorooctanesulfonamidoethyl acrylate] has log vapor pressure -5.157 (log10 mmHg) (via ICF). The entry for CC(=O)c1ccncc1 [4-Acetylpyridine] lists log vapor pressure 0.69 (log10 mmHg) (via PubChem).

Listed for O=C(O)Cc1c[nH]c2ccccc12 [Indole-3-acetic acid]: log vapor pressure -6.824 (log10 mmHg) (via OCHEM). Listed for O=C(O)CC(=O)C(=O)O [2-Oxobutanedioic acid]: log vapor pressure -4.498 (log10 mmHg) (via eChemPortal). CC(=O)C(C)C=CC1CC=C(C)C1(C)C (stereo not drawn) is reported with log vapor pressure -2.171 (log10 mmHg) (via eChemPortal). Listed for C[Si](C)(C)CCl [Silane, (chloromethyl)trimethyl-]: log vapor pressure 1.578 (log10 mmHg) (via eChemPortal).

For C=CS(=O)(=O)CS(=O)(=O)C=C [Ethene, 1,1'-[methylenebis(sulfonyl)]bis-] the data give log vapor pressure -4.657 (log10 mmHg) (via eChemPortal). Listed for Nc1ccccc1C(F)(F)F [o-(Trifluoromethyl)aniline]: log vapor pressure 0.197 (log10 mmHg) (via eChemPortal). Listed for O=C(O)c1c(Cl)c(Cl)c(Cl)c(Cl)c1C(O)=Nc1cccc(Cl)c1Cl [Tecloftalam]: log vapor pressure -7.213 (log10 mmHg) (via OCHEM). CC(C)(CN)CN [1,3-Propanediamine, 2,2-dimethyl-] is reported with log vapor pressure 0.235 (log10 mmHg) (via eChemPortal).

For Cc1occc(=O)c1O [Maltol] the data give log vapor pressure -2.949 (log10 mmHg) (via eChemPortal). The entry for O=C(O)c1ccccn1 [Picolinic acid] lists log vapor pressure -3.676 (log10 mmHg) (via eChemPortal). The entry for Clc1cc(Cl)c(-c2cc(Cl)ccc2Cl)c(Cl)c1 [2,2',4,5',6-Pentachlorobiphenyl] lists log vapor pressure -4.155 (log10 mmHg) (via OCHEM). COC(OC)N(C)C [Methanamine, 1,1-dimethoxy-N,N-dimethyl-] is reported with log vapor pressure 1.472 (log10 mmHg) (via eChemPortal).

CCOC(=O)N1C(=O)c2ccccc2C1=O has log vapor pressure -4.473 (log10 mmHg) (via eChemPortal). For CN1CCN(C)CC1 [1,4-Dimethylpiperazine] the data give log vapor pressure 0.991 (log10 mmHg) (via eChemPortal). The entry for OCCCOCCCO [3,3'-Oxybis-1-propanol] lists log vapor pressure -2.871 (log10 mmHg) (via eChemPortal).

The 5 highest values of log vapor pressure among the entries above:

{"smiles": "CC(C)OC(=O)C(F)(F)F", "name": "Isopropyl trifluoroacetate", "log vapor pressure (log10 mmHg)": "2.015", "via": "eChemPortal"}
{"smiles": "C[Si](C)(C)CCl", "name": "Silane, (chloromethyl)trimethyl-", "log vapor pressure (log10 mmHg)": "1.578", "via": "eChemPortal"}
{"smiles": "CCOC(F)(F)C(F)(F)C(F)(F)C(F)(F)C(F)(F)F", "name": "1-Ethoxy-1,1,2,2,3,3,4,4,5,5,5-undecafluoropentane", "log vapor pressure (log10 mmHg)": "1.571", "via": "ICF"}
{"smiles": "COC(OC)N(C)C", "name": "Methanamine, 1,1-dimethoxy-N,N-dimethyl-", "log vapor pressure (log10 mmHg)": "1.472", "via": "eChemPortal"}
{"smiles": "CN1CCN(C)CC1", "name": "1,4-Dimethylpiperazine", "log vapor pressure (log10 mmHg)": "0.991", "via": "eChemPortal"}

Data: OPERA 2.9 data sets, kmansouri/OPERA on GitHub.